Molecular target: hemoglobin A0 (human) (UniProt P69905)
Experiment: SPR; Hb A0 immobilised; purified native Hpr or TLF (two-step) flowed over; Langmuir 1:1 binding model, BIAevaluation 4.1; essentially as in ref. 31

Protein sequences, listed by entry. Tags and fused reporters are not part of them. Lines headed by an entry give the natural chain unless they say otherwise; changes in a name come on top.
UniProt P69905, whole entry, chain 1 of 2: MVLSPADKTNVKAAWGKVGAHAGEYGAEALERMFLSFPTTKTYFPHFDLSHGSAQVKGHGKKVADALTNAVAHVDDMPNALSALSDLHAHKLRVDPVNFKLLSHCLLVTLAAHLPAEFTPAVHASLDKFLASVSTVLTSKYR
UniProt P00739: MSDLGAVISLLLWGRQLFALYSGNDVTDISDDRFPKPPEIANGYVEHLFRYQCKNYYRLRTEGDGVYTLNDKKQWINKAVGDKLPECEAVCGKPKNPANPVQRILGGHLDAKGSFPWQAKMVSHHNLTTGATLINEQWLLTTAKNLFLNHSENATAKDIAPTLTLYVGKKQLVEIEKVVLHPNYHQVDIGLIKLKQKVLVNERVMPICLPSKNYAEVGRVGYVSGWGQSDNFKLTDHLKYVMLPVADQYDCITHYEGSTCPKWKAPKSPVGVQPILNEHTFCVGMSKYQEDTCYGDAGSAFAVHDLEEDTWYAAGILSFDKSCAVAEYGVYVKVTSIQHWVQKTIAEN

haptoglobin-related protein (from UniProt P00739 1-348; P00739 1-348) (natural protein)
Kd: 2 to 5 nM
